Measurements taken from patent publication US20260183365A1, “COMBINATION THERAPY FOR C3 INHIBITION” (Apellis Pharmaceuticals, Inc., priority 2016, published 2026).

Test system: PNH RBCs
Assay: modified Ham's assay comparing CA28-2GS-BF with Soliris
Type: cell-based, human
Conditions: activated complement
Description: Flow cytometry was performed after antibody staining using antibodies against CD59 and C3d. In this figure, quadrant 1 (Q1) and quadrant 3 (Q3) represent Type III cells. Quadrant 2 (Q2) and quadrant 4 (Q4) represent Types I and II cells. Q1 and Q2 represent cells with a significant and abnormally high amount of C3 activation product (e.g., C3d) deposition. Q3 and Q4 represent cells without significant C3d deposition or somewhat elevated level (right portion of Q4) but less so than Q2 cells.

B1: Eculizumab: humanized anti-C5 monoclonal antibody approved for treatment of PNH and aHUS (antibody, chains of the INN, looked up)
heavy: QVQLVQSGAEVKKPGASVKVSCKASGYIFSNYWIQWVRQAPGQGLEWMGEILPGSGSTEYTENFKDRVTMTRDTSTSTVYMELSSLRSEDTAVYYCARYFFGSSPNWYFDVWGQGTLVTVSSASTKGPSVFPLAPCSRSTSESTAALGCLVKDYFPEPVTVSWNSGALTSGVHTFPAVLQSSGLYSLSSVVTVPSSNFGTQTYTCNVDHKPSNTKVDKTVERKCCVECPPCPAPPVAGPSVFLFPPKPKDTLMISRTPEVTCVVVDVSQEDPEVQFNWYVDGVEVHNAKTKPREEQFNSTYRVVSVLTVLHQDWLNGKEYKCKVSNKGLPSSIEKTISKAKGQPREPQVYTLPPSQEEMTKNQVSLTCLVKGFYPSDIAVEWESNGQPENNYKTTPPVLDSDGSFFLYSRLTVDKSRWQEGNVFSCSVMHEALHNHYTQKSLSLSLG
light: DIQMTQSPSSLSASVGDRVTITCGASENIYGALNWYQQKPGKAPKLLIYGATNLADGVPSRFSGSGSGTDFTLTISSLQPEDFATYYCQNVLNTPLTFGQGTKVEIKRTVAAPSVFIFPPSDEQLKSGTASVVCLLNNFYPREAKVQWKVDNALQSGNSQESVTEQDSKDSTYSLSSTLTLSKADYEKHKVYACEVTHQGLSSPVTKSFNRGEC
deposition of C3d on PNH RBCs: significant deposition of C3 activation products (e.g., C3d) occurs on Type III cells
